## Ab-91 heavy chain CDR variants: yeast mating affinities

The target is the same throughout: PDVDLGDISGINAS, from the HR2 region of SARS-CoV-2 spike.

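Phage display of a naive human antibody library on the peptide gave the parent. The library (AAYL51) carries one to three amino acid substitutions per variant, with no insertions or deletions. In AlphaSeq, yeast of one mating type display the scFv and yeast of the other type display the target. The frequency of each diploid, read from paired DNA barcodes, reflects how well the two displayed proteins bind. Each replicate has its own calibration line, from reference interactions of the BCL2 family. The assay was run in three technical replicates.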

Each scFv is VL, a (GGGGS)3 linker, VH, as in the parent Ab-91, and differs from it in the CDRs of the heavy chain only.
VL: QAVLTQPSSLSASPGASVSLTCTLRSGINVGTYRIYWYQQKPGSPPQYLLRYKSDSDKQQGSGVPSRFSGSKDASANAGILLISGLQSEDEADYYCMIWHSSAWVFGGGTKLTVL
VH: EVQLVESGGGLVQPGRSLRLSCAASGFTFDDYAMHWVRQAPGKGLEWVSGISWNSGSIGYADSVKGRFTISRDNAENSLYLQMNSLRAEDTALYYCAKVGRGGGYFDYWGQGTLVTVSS

Each variant is given by its three heavy chain CDRs, as the data file delimits them; those of the parent are GFTFDDYAMH, GISWNSGSIGYADSVK, VGRGGGYFDY. Numbers give log10(Kd / nM), so 0 is 1 nM and 3 is 1 µM. Smaller is tighter. Where no diploid with the target was found in that replicate, the entry reads "ND": below detection, most likely a poor binder, though not proof of it. For reference, the parent read 1.86 as the reference entry and 0.88 as a member of this library. Empty control strains, which show no peptide, gave a signal in 21% of pairings with library AAYL51; the median was 4.54 and 95% of these signals were weaker than 3.26. No background was subtracted. For each scFv, signals with the empty controls are counted beside the result, with their mean in brackets.

CDR-H1,CDR-H2,CDR-H3,"log10 Kd, replicates",empty controls
GFTFDDYAMH,GISWNSGSVGYADSVS,VGRGNGYFDY,ND ND ND,0/9
RKTVDDYAMH,GISWNSGSIGYADSVK,VGRGGGYFDY,2.97 ND ND,0/9
YFTFDDYAMH,GISWNSGSIGYADSVK,VGRGGGYFDK,ND 3.87 ND,2/9 (4.91)
GFTFDPYSMH,GISWNSGSIGYADSVK,VGRGGGYCDY,ND 4.61 ND,0/9
GFTFSDTAMH,GISWNSGSIGYADSVK,VGRGGGYFDY,5.63 ND 2.70,4/9 (3.84)
GFTFDDYAMH,GHSWESGSIGYADSVK,VGPGGGYFDY,ND ND ND,0/9
GFTFDDYAMH,GISWNSGSIPYADSVK,VGRTGGYFDV,ND ND 4.78,3/9 (5.21)
FFTFDDYAMH,TISWNSGSIGYADSVK,VGVGGGYFDY,ND ND ND,0/9
GFTFDDYAMH,GISWNSGSHGYAWSVK,VGRCGGYFDY,ND ND ND,0/9
GFSFDDYAYH,GISWNSGSIGYADSVK,VGRGGGYFDK,4.21 3.12 ND,3/9 (3.40)
GCTFDKYAMH,GISWNSGSIGYADSVK,VSRGGGYFDY,ND ND 4.79,1/9 (4.18)
HFTFDDYAMH,GESWNSGSIGYADSVK,VIRGGGYFDY,ND 2.91 ND,0/9
DFTFDDYAMF,GISWNSCSIGYADSVK,VGRGGGYFDY,ND ND ND,1/9 (3.93)
GFTFDDYAMH,GISWQSGSEGYADSVK,VGRGGGYFRY,ND 4.64 ND,3/9 (4.66)
GFTFDDYAMH,GISWNSGSIGYADPVK,VFRFGGYFDY,ND ND ND,2/9 (4.03)
GFTFDDYAMH,GISWTSGSIGYARSVK,VGRGGGYFDY,ND ND ND,3/9 (4.41)
GFTFDDYAMH,GMSWNSGSIGYADSVK,VGRGGGYTDY,4.87 4.65 5.17,3/9 (5.10)
GFTHDDYAMT,GISWNSGSIGYAPSVK,VGRGGGYFDY,4.41 ND ND,3/9 (4.23)
GFTFDDYDMH,WISWNSGEIGYADSVK,VGRGGGYFDY,3.61 3.94 ND,2/9 (3.52)
GFTFDDYAMH,GISWNSGSIGYADSVK,EDRGGGYFIY,3.24 3.47 2.57,2/9 (4.26)
GFTFDDYAMH,GISWNSGSIGGGDSVK,MGRGGGYFDY,ND ND ND,2/9 (4.25)
GCTFDDYAMH,GIQWNSGSIGYADSVK,VGRGGGLFDY,4.76 4.84 3.99,5/9 (5.58)
GFTFDDYAMH,GISWNSGSIGYWDSVK,VGVGGGDFDY,3.30 3.52 3.08,1/9 (3.19)
GFTFDDYAMH,GISWYSGSIGYADSVK,VGRGGGYFDT,ND ND ND,1/9 (2.02)
GFTFDDYQMH,GISWNSGSIGYADSVK,VGRGGMYFDY,4.04 3.91 3.99,5/9 (4.77)
GFTFDWYAMH,GISWNSGSIGYAMSVK,VGRGGGYFDY,2.99 3.07 2.76,6/9 (4.58)
GFTFDDYAMH,GISWNSGSIGYAPSVK,VRRGGGYFDY,1.18 1.39 0.98,2/9 (4.16)
GFTFDDYAMV,GISWNSGSQGYADSVK,VGRGGGYCDY,ND ND ND,1/9 (2.57)
GFTFDDYAMH,GISWNSGSVGYADSVK,VGRGGGDFDA,1.50 1.15 1.15,4/9 (4.75)
GFTFDDYAMH,GISWNSGSIGYADSVK,VMRHGGYFDV,ND 5.83 ND,3/9 (4.28)
GFTFDDYAMH,GISWNSGSIGYADSVK,VGRGMGNTDY,ND 3.92 5.16,4/9 (4.36)
GFVFDDYAMH,GESWNSGKIGYADSVK,VGRGGGYFDY,ND ND ND,1/9 (4.65)

From the AlphaSeq antibody data of Engelhart et al. 2022 (doi:10.1038/s41597-022-01779-4), copy in the FLAb collection.